Legend:
[1] = Chemical stability in pH buffers; conditions: for Chemical Stability, pH 2.0: pH 2.0 buffer; for Chemical Stability, pH 7.4: pH 7.4 buffer; for Chemical Stability, pH 8.0: pH 8.0 buffer
[2] = Enzymatic stability in rat plasma
[3] = Enzymatic stability in rat liver S9; conditions: 37° C.
[4] = Enzymatic stability in Caco-2 homogenate S9; conditions: 37° C.
SMVT transporter = SMVT transporter (Homo sapiens, UniProt Q9Y289); assay: Uptake in HEK cells induced / not induced to express SMVT; conditions: 0.1 mM, SMVT induced vs not induced, FIG. 5

Amino acid sequences for entries named in this document (tags omitted). A change or cut given only in a name is not applied to a line headed by its entry.
UniProt Q9Y289: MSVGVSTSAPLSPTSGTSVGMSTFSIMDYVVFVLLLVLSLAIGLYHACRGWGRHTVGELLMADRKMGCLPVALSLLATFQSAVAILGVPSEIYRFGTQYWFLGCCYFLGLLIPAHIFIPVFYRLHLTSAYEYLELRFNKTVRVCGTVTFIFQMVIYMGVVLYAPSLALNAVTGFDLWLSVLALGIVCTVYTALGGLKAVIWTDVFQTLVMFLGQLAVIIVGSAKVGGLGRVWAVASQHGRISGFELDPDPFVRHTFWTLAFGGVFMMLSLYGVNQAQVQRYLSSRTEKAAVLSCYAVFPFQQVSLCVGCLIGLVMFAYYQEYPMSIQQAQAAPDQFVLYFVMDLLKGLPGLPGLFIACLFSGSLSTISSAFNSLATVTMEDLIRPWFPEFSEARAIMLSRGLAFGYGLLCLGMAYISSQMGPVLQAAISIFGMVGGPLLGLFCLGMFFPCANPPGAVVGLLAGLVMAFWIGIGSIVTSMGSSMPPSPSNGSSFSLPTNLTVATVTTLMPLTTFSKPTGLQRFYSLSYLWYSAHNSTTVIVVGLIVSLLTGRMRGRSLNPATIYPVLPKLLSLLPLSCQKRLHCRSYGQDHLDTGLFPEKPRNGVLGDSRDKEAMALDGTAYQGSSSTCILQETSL

SMILES: CN(CC(=O)O)C(=N)NP1(=O)OCc2ccccc2O1 (stereo not shown)
- Chemical Stability, pH 2.0 ([1]; Time 0 h): 100.0
- Chemical Stability, pH 2.0 ([1]; Time 0.5 h): 74.9
- Chemical Stability, pH 2.0 ([1]; Time 1 h): 60.5
- Chemical Stability, pH 2.0 ([1]; Time 3 h): 33.8
- Chemical Stability, pH 7.4 ([1]; Time 0 h): 100.0
- Chemical Stability, pH 7.4 ([1]; Time 0.5 h): 107.4
- Chemical Stability, pH 7.4 ([1]; Time 1 h): 100.2
- Chemical Stability, pH 7.4 ([1]; Time 3 h): 103.7
- Chemical Stability, pH 8.0 ([1]; Time 0 h): 100.0
- Chemical Stability, pH 8.0 ([1]; Time 0.5 h): 97.7
- Chemical Stability, pH 8.0 ([1]; Time 1 h): 97.6
- Chemical Stability, pH 8.0 ([1]; Time 3 h): 111.7
- Enzymatic Stability, Rat Plasma ([2]; Time 0 h): 100.0
- Enzymatic Stability, Rat Plasma ([2]; Time 0.5 h): 86.3
- Enzymatic Stability, Rat Plasma ([2]; Time 1 h): 85.2
- Enzymatic Stability, Rat Plasma ([2]; Time 3 h): 103.0
- Enzymatic Stability, Rat Plasma ([2]; Time 6 h): 90.9
- Enzymatic Stability, Rat Liver S9 ([3]; Time 0 h): 100.0
- Enzymatic Stability, Rat Liver S9 ([3]; Time 0.5 h): 78.4
- Enzymatic Stability, Rat Liver S9 ([3]; Time 1 h): 105.6
- Enzymatic Stability, Rat Liver S9 ([3]; Time 3 h): 83.5
- Enzymatic Stability, Rat Liver S9 ([3]; Time 6 h): 78.1
- Enzymatic Stability, Caco-2 ([4]; Time 0 h): 100.0
- Enzymatic Stability, Caco-2 ([4]; Time 0.5 h): 86.4
- Enzymatic Stability, Caco-2 ([4]; Time 1 h): 105.8
- Enzymatic Stability, Caco-2 ([4]; Time 3 h): 91.8
- Enzymatic Stability, Caco-2 ([4]; Time 6 h): 86.5
- transporter specific uptake into HEK cells (SMVT transporter): transported across the plasma membrane of HEK cells via the SMVT transporter

Source: patent US20070281910A1, “Salicyl alcohol creatine phosphate prodrugs, compositions and uses thereof” (XenoPort, Inc., priority 2006, published 2007)
